According to US4668672A, “Feed compositions containing pyridylalkylhydrazides” (SmithKline Beckman Corporation, priority 1985, dated 1987):

System: swine ileal or cecal inoculum (filtrate of cannula material)
Experiment: In vitro swine procedure (incubation of inoculum from cannulated swine, in vitro fistula procedure)
Design: species or system swine (Yorksire barrow)
Conditions: 5 hours at 37°, blank control = 100%; for LAC (L lactic acid): 1.67 ppm

Row | SMILES | LAC (L lactic acid) | GLU (glucose) (16.67 ppm) | GLU (glucose) (166.67 ppm)
1 | COC(=O)NN=Cc1ccccn1 [drawing 4] | 96 % of Control Values | 114 % of Control Values | 92 % of Control Values
2 | COC(=O)NN=C(C)c1ccccn1 [drawing 3] | 95 % of Control Values | 117 % of Control Values | 114 % of Control Values
